Data reported in US5869449A, “38-decarboxy-38-hydroxymethyl derivatives of teiocoplanin antibiotics and a process for preparing them” (Gruppo Lepetit S.P.A., priority 1990, dated 1999).
Some compounds may have been tested in ways that are not shown here.

Assay: Acid-base titration (pK MCS)
Type: physicochemical
Conditions: methyl cellosolve (MCS) H2O 4/1, excess 0.01M HCl, titrated with 0.01N NaOH; one basic ionizable function

Q: Which pKMCS does the source give for “38-Decarboxy-38-hydroxymethyl deglucoteicoplanin” here?
A: 6.6
